Source: ChEMBL document CHEMBL1131579, “Nitroaromatic amino acids as inhibitors of neuronal nitric oxide synthase” (J Med Chem, 1998)

Target: T1, Nitric oxide synthase 3 (Bos taurus, UniProt P29473)
T1 sequence (P29473 whole entry): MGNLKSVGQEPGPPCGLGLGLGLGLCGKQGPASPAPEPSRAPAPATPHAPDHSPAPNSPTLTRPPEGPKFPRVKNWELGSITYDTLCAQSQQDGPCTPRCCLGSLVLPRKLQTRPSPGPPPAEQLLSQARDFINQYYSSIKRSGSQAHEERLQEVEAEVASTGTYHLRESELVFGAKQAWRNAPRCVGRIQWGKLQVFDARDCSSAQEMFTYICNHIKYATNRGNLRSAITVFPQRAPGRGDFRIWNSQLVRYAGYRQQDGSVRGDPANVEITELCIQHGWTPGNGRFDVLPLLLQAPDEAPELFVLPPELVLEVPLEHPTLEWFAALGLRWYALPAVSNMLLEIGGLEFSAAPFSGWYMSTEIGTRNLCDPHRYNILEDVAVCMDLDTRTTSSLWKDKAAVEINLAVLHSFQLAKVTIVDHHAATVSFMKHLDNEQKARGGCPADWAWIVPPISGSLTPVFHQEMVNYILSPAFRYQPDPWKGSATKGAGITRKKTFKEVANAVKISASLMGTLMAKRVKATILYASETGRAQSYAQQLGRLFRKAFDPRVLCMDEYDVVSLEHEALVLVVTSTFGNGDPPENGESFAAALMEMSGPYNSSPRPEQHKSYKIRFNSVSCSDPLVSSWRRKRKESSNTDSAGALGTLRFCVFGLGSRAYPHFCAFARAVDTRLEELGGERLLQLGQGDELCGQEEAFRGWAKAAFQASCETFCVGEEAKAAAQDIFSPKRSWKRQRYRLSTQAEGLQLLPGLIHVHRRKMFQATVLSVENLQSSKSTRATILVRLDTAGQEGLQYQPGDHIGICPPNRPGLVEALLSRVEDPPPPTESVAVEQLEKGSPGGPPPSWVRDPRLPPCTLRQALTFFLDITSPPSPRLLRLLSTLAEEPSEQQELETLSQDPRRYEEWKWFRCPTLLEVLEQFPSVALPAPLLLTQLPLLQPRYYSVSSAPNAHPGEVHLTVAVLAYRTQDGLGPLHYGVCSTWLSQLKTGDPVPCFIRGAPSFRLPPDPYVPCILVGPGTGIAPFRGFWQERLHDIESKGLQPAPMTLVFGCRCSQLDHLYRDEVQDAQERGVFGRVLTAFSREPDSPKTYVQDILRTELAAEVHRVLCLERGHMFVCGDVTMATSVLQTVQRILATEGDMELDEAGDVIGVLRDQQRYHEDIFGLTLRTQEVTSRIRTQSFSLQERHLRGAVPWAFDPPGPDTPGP
Assay: Inhibitory activity of conversion of radiolabeled arginine to citrulline by isomeric form of nitric oxide synthase Endothelial nitric oxide synthase from cultured bovine aortic endothelial cells
Format: cell-based, Endothelial cell
Procedure, shortened: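 eNOS taken from the CHAPS-solubilized particulate fraction of cultured bovine aortic endothelial cells. Incubated 20 min at ambient temperature with 10 μM L-[2,3-3H]arginine, 1 mM NADPH, 2 mM CaCl2 and graded inhibitor. Stopped at pH 5.5 with EGTA/EDTA; [3H]citrulline isolated on cation-exchange column and counted by scintillation. IC50.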

N=C(NCCC[C@H](N)C(=O)O)N[N+](=O)[O-] [NITROARGININE]
IC50: 1200 nM
